Patent US9856279B2 (AGIOS PHARMACEUTICALS, INC, priority 2011, dated 2018)

By UniProt entry, the sequences of proteins in these tests, tags left out. Where a name states a change or a piece, a line headed by the entry shows the natural chain unless it says otherwise.
UniProt O75874, whole entry, looked up: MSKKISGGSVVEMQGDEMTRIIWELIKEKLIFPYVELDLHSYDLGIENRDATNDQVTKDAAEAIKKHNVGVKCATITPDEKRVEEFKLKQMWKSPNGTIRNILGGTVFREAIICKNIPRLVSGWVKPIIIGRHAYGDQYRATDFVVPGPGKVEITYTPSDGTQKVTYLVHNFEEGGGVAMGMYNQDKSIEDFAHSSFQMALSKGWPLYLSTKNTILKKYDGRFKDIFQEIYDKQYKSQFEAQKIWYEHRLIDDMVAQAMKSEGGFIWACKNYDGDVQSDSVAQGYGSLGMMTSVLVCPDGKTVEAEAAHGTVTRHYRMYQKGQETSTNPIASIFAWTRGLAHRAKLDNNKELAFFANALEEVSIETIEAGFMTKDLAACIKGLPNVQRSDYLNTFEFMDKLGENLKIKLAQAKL
UniProt O75874, whole entry R132H: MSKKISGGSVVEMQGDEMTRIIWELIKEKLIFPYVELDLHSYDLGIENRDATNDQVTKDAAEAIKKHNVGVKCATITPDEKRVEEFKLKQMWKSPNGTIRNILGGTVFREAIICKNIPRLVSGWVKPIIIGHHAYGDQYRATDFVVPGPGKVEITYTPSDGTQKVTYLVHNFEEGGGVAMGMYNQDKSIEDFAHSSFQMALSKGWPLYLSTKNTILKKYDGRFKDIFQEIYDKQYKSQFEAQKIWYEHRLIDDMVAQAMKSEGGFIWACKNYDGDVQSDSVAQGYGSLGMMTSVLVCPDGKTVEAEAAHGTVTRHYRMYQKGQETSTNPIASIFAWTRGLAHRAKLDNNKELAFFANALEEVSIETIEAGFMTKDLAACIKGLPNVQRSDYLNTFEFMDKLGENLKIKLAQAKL

Tests used:
HT1080 cells = HT1080 cells (UniProt O75874); test: Cellular assay for IDH1m inhibitors: inhibition of 2-HG production (LC-MS, 48 hours) in HT1080 cells; conditions: read-out: HT1080 IC50
IDH1 R132H = IDH1 R132H (Homo sapiens, UniProt O75874, R132H); test: Assay for IDH1 R132H inhibitors (NADPH/aKG, resazurin detection); conditions: read-out: IDH1R132H IC50; enzyme assay of Example 12
U87MG cells = U87MG cells (UniProt O75874); test: Cellular assay for IDH1m inhibitors: inhibition of 2-HG production (LC-MS, 48 hours) in U87MG cells; conditions: read-out: U87R132H IC50

Measured: IC50

C=Cc1ccnc(Nc2cc(C#N)c(N3CCN(C(=O)C[C@H]4CCO4)[C@H](C4CC4)C3)nc2C2CC2)c1
< 500 nM: all assays above
